Assay results: paper PMC10123104, “YbiB: a novel interactor of the GTPase ObgE”

Biological target: T1, YbiB WT (Escherichia coli BW25113, UniProt P30177 1-320)
T1 sequence: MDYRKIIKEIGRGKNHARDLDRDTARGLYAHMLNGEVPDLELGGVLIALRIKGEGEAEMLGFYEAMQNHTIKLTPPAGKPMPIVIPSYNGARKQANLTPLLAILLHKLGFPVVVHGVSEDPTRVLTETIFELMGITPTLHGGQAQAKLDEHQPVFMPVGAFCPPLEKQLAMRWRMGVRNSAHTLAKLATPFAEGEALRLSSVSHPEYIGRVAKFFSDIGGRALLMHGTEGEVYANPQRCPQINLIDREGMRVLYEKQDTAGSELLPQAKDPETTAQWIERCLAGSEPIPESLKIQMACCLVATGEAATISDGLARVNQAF
Assay: EMSA; apparent KD, Hill fit; subunit concentration; EMSA: 20 mM HEPES pH 7.5, 150 mM NaCl, 5 mM MgCl2, 2 mM DTT, 5% glycerol, 30 min at 37 C; 6% PAGE in 1x TBE at room temperature
Conditions: protein: recombinant; tags: N-terminal His6, thrombin site (pET28a); chain copies: 2; label: 5'-32P; single strand

B1: EMSA_probe (58-nt ssDNA) (ssDNA)
DNA: GCTTTTGATGTACCAATGCATCACCATCACCATCAGGAAATGGGTAAGATGCTTGTAG
  Kd: ~850 nM
